Test results reported in patent US12018016B2, “Aryl sulfonyl (hydroxy) piperidines as CCR6 inhibitors” (CHEMOCENTRYX, INC., priority 2021, dated 2024).

Chains of the proteins cited; added tags and fusions are not shown.
UniProt P51684, whole entry: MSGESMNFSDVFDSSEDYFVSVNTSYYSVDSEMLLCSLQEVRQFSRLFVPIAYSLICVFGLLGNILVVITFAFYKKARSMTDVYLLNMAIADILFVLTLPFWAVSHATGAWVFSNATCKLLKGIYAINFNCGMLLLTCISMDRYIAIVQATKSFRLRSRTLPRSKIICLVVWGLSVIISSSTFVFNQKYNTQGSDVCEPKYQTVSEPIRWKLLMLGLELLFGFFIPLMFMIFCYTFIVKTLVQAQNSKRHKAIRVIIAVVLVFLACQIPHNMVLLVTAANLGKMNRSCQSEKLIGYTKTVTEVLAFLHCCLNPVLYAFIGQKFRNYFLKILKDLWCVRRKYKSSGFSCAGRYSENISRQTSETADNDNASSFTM

Target: human CCR6 (Homo sapiens, UniProt P51684)
Test: Migration assay (chemotaxis, ChemoTX)
Conditions: read-out: Potency (IC50 value in the migration assay); hCCR6-transfected Ba/F3 cells in human serum, migration to recombinant human CCL20 10 nM, 37° C. 45 minutes
From the text: A chemotaxis assay can be used to determine the efficacy of potential receptor antagonists at blocking the migration mediated through chemokine receptors, such as CCR6. This assay is routinely performed using the ChemoTX® microchamber system with a 5-μm pore-sized polycarbonate membrane. Chemokine receptor-expressing cells are required for such an assay. In this case, Ba/F3 cells (Palacios et al., Nature, 309:126, 1984) transfected with the gene for human CCR6 under control of the CMV promotor were used. To begin such an assay, hCCR6-transfected Ba/F3 cells are first grown for 24 hr in medium supplemented with sodium butyrate, which increases CCR6 transcription via the CMV promotor. The prepared Ba/F3 cells, are collected by centrifugation at 400×g at room temperature, then suspended at 4 million/ml in human serum. The compound being tested is serially diluted from a maximum final concentration of 1 μM (or an equivalent volume of its solvent (DMSO)) and is then added to the cell/serum mixture. Separately, recombinant human CCL20 (MIP-3α/LARC) at its EC50 concentration (10 nM) is placed in the lower wells of the ChemoTX® plate. The 5-μm (pore size) polycarbonate membrane is placed onto the plate, and 20 μL of the cell/compound mixture is transferred onto each well of the membrane. The plates are incubated at 37° C. for 45 minutes, after which the polycarbonate membranes are removed and 5 μl of the DNA-intercalating dye CyQUANT (Invitrogen, Carlsbad, CA) is added to the lower wells. The amount of fluorescence, corresponding to the number of migrated cells, is measured using a Spectrafluor Plus plate reader (TECAN, San Jose, CA).

Structure (SMILES)	IC50
N#Cc1n[nH]c2ncc(-c3ccc(S(=O)(=O)N4CC[C@@H](Nc5ccc(C(F)(F)F)cn5)[C@@H](O)C4)cc3)cc12 [Compound 193]	< 1 nM
O=C1Nc2ncc(-c3ccc(S(=O)(=O)N4CC[C@@H](Nc5ccc(C(F)(F)F)cn5)[C@@H](O)C4)cc3)cc2C12CCOCC2	< 1 nM
NC1CCN(c2cc(-c3ccc(S(=O)(=O)N4CC[C@@H](Nc5ccc(C(F)(F)F)cn5)[C@@H](O)C4)cc3)ccn2)CC1	< 1 nM
